We go through two substances from US20240016902A1.

Experiment [1] concerns the target ACTG1 (UniProt P63261). Description: Flag-IP from HeLa cell lysate, mass spectrometry of eluate.
The next experiment has as its target HSPA8 (UniProt P11142). Described as above.
A further experiment deals with SPTBN1 (UniProt Q01082). The experiment is described as above.
Another experiment addresses TUBA1A (UniProt Q71U36). Described as above.
The next experiment concerns the target ACT7 (UniProt P53492). The experiment in a line: Flag-IP from HepG2 cell lysate, mass spectrometry of eluate.
In the next experiment the target is ACTC1 (UniProt P68032). The experiment is described as above.
For experiment [2], the target named is ACTG1 (UniProt P63261). Described as above.
Another experiment addresses DBN1 (UniProt Q16643). The description is as above.
Another experiment addresses WDR77 (UniProt Q9BQA1). The experiment is described as above.
Experiment [3] deals with ACTB (UniProt P60709). Description: Flag-IP from HeLa cell lysate, mass spectrometry of eluate.
The target in experiment [4] is ACTB (UniProt P60709). The experiment in a line: Flag-IP from HepG2 cell lysate, mass spectrometry of eluate.
Another experiment deals with TUBB4B (UniProt P68371). The experiment is described as above.

As to “Flag-AtRDR1 (Arabidopsis thaliana RNA-dependent RNA polymerase 1 with Flag tag) (from UniProt Q9LQV2 1-1107) (enzyme)”, the Coverage (%) with ACTG1 [1] is 50%; with HSPA8, 35%; with ACT7, 15%; with ACTC1 it was 35%; with ACTG1 [2], 73%. Moreover, the Length of peptide in the experiment with ACTG1 [1] stood at 13; in the experiment with HSPA8, 15; with SPTBN1, 22; with TUBA1A it was 11; in the experiment with ACT7, 4; with ACTC1, 11. Further, the Length of peptide with ACTG1 [2] was 22; with DBN1, 15; with WDR77, 15.

“Flag-OsRDR1 (rice, Oryza sativa, RNA-dependent RNA polymerase 1 with Flag tag) (from UniProt Q0DXS3 1-740) (enzyme)”: the Coverage (%) was 40% with ACTB [3], 76% with ACTB [4] and 76% in the experiment with ACTG1 [2]. Moreover, the Length of peptide was 10 with ACTB [3], 25 with ACTB [4], 25 with ACTG1 [2] and 25 with TUBB4B.
